# Results from ChEMBL document CHEMBL5725924, “Substituted benzimidazole-type piperidine compounds and uses thereof” (2017).
# Target: Mu-type opioid receptor (Homo sapiens, UniProt P35372)
# Test: In Vitro Kappa-Opioid Receptor Binding Assay: κ-Opioid Receptor Binding Assay Procedures: Membranes from recombinant HEK-293 cells expressing the human kappa opioid receptor (kappa) (cloned in house) were prepared by lysing cells in ice cold hypotonic buffer (2.5 mM MgCl2, 50 mM HEPES, pH 7.4) (10 mL/10 cm dish) followed by homogenization with a tissue grinder/Teflon pestle. Membranes were collect
compound,measurement,value
O=C(O)CN1CCCC[C@@H]1c1nc2ccccc2n1[C@H]1C[C@H]2CCC[C@@H](C1)N2[C@@H]1C[C@@H]2CCCC[C@@H](C2)C1,Ki,11 nM
